Reference: patent US6358492B1, “Dopamine transporter imaging ligand” (Research Triangle Institute, priority 1997, dated 2002)

Protein sequences, listed by entry. Tags and fused reporters are not part of them.
UniProt P23977, whole entry: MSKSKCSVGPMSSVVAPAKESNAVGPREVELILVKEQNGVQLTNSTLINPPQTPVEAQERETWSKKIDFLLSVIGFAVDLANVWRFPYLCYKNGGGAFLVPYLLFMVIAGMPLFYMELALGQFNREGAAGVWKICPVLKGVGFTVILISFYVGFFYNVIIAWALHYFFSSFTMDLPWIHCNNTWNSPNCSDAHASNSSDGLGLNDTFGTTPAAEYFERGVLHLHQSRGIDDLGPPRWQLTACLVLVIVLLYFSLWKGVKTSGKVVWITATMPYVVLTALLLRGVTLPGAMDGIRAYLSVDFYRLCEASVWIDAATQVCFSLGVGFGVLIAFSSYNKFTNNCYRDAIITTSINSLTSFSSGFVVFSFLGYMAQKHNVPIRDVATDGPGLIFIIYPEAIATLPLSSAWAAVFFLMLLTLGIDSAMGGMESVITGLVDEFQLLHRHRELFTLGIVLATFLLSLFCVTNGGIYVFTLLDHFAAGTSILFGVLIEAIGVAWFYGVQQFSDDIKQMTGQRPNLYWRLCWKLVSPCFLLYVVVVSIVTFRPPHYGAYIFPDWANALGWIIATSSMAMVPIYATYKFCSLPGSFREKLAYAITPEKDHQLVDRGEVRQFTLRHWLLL

Legend:
[1] = tested on: norepinephrine transporter; assay: Inhibition of 0.5 nM [3H]nisoxetine binding to the norepinephrine transporter; settings: ratio of IC50 values
dopamine transporter = dopamine transporter (UniProt P23977); settings: read-out: IC50 DA [3H]WIN 35,428; 0.5 nM [3H]WIN 35,428; mean ± standard error where given
serotonin transporter = settings: ratio of IC50 values

In the case of Cc1noc([C@H]2[C@@H](c3ccccc3)C[C@@H]3CC[C@H]2N3C)n1, the “NE/DA Ratio” value [1] is reported as 38, the IC50 (dopamine transporter) is reported as 100 nM and the “5-HT/DA Ratio” value (serotonin transporter) is reported as 79.
